Columns and labels:
[1] = Solubility and stability of molecular iodine in solvents on water addition
[2] = unless iodide is present; cited from earlier work

## II
[1]; solvent TG
  stability of solution in TG in the presence of water: remains stable even in the presence of water
[1]; solvent ethanol
  behaviour of solution in ethanol after water addition: precipitates
[1]; solvent polyethyleneglycol (PEG)-400
  behaviour of 2% solution in PEG-400 in the presence of water: precipitates and dissolves again after overnight incubation at room temperature
[2]
  solubility in water: practically water insoluble

— patent US6926913B2, “Composition containing molecular iodine” (dated 2005)
